Reference: patent US20170049739A1, “PROSTACYCLIN COMPOUNDS, COMPOSITIONS AND METHODS OF USE THEREOF” (INSMED INCORPORATED, priority 2013, published 2017)

Tests used:
[1] = rat, in vivo, 6 ug/kg
Description: Body weights were recorded daily and organ weights (lungs, heart, liver) were measured 24 hr, after the last drug dose.

[2] = Treprostinil alkyl ester conversion to treprostinil in monkey lung tissue homogenate; type: in vitro ADME; settings: 37° C., 200 nM, 10 mg/mL of protein, 4 hours
Description: (§1) Treprostinil alkyl ester conversion to treprostinil was also measured in the presence of rat, dog and monkey lung tissue homogenate at 37° C. Mere, data were calculated based on fit of exponential increase to the maximum (experiments performed in duplicate). The results of this study are provided below in Table 2A and FIG. 37. […] Both FIG. 37 experiments (left and right graphs) were performed in duplicate and the lines represent nonlinear exponential regression assuming 1 phase decay.

[3] = Treprostinil alkyl ester conversion to treprostinil in rat lung tissue homogenate; type: in vitro ADME; settings: 37° C., 200 nM, 10 mg/mL of protein, 4 hours
Description: as §1

## hexadecyl-treprostinil [C16-TR]
[1]
  increase in plasma AUC by day 14: 3-4 fold

## treprostinil decyl ester [C10-TR]
[2]
  Rate of treprostinil alkyl ester conversion: 4.6 nmOL/h * g of protein
[3]
  Rate of treprostinil alkyl ester conversion: 7.3 nmOL/h * g of protein
